Experimental data reported in patent US20210145834A1, “COMBINATION OF POZIOTINIB WITH CYTOTOXIC AGENT AND/OR OTHER MOLECULARLY TARGETED AGENT AND USE THEREOF” (Spectrum Pharmaceuticals, Inc., priority 2018, published 2021).

Columns and labels:
Format in all cases: cell-based
[1] = test system: H1975 cells; experiment: Cell growth inhibition assay (CellTiter 96 Aqueous One), single agents and combinations; details: H1975, single agent, 2 days
Method: (§1) The effect of the inventive compositions on the cancer cell growth inhibition was conducted in EGFR-overexpressed or -mutated cancer cell lines.
(§2) All cells except for H1975 were cultured for 72 hours prior to cell plating. Cells were seeded in a 96-well plate at 4 to 15×10^3 cells/well. Approximately 24 hours after plating, cells were exposed to ten, two-fold or three fold serial dilutions of test individual compounds or the combination of the two test compounds at a constant molar to molar ratio or non-constant ratio of two agents. Cells were incubated in the presence of compounds for 3 days except for H1975, which was for 2 days at 3×10^3 cells/well.
(§3) Cell growth inhibition based on measurement of cellular protein content is determined by sulforhodamine B colorimetric assay according to the “Nat Protoc. […] The absorbance was read on a SpectraMax™ plate reader at 540 nm. For H1975 cells, cell growth (%) is determined by adding CellTiter™ 96 Aqueous One Solution Cell Proliferation Assay reagent (Promega) according to the manufacturer's protocol.
(§4) Inhibition of cell growth was estimated after treatment with test agent or combination of test agents for incubating time (2-3 days) and comparing the signal to cells treated with vehicle (DMSO). Cell growth (%) was calculated by following equations.
(§5) Percentage growth inhibition was calculated using:
a. […]
(§6) Each T value means an absorbance. […]

[2] = test system: BT-474 cells; experiment: Cell growth inhibition assay (sulforhodamine B), single agents and combinations; details: BT-474, single agent, 3 days
Method: as §1, §2, §3, §4, §5
a. […]
as §6

[3] = test system: N87 cells; experiment: as above; details: N87, single agent, 3 days
Method: as §1, §2, §3, §4
Percentage growth inhibition was calculated using: […]
as §6

Row | Substance | GI50 [1] [µM] | GI50 [2] [µM] | GI50 [3] [µM]
1 | Cetuximab | > 10 | – | –
2 | Trastuzumab | – | 0.082 | > 10
